Experimental data: patent US20050288187A1, “Inhibitor development for 4-hydroxyphenylpyruvate dioxygenase, employing tyrosinemia 1 as a model for human diseases mediated by 2-oxoacid utilizing dioxygenases” (priority 2002, published 2005)

Amino acid sequences for entries named in this document (tags omitted). A change or cut given only in a name is not applied to a line headed by its entry.
UniProt P32754: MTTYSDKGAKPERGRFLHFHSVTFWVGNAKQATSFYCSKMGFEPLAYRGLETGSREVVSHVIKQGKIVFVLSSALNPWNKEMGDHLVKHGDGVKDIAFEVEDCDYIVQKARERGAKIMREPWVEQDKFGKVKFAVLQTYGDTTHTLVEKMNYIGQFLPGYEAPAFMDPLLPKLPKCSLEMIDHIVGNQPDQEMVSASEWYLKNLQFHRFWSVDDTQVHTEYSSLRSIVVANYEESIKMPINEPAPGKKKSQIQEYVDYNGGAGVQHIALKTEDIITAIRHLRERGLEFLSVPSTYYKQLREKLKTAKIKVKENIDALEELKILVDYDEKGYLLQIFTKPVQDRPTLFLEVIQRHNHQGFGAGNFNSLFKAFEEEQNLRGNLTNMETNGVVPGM

Biological target: 4-HPPD (Homo sapiens, UniProt P32754)
Settings: in vivo

O=C1CCCC(=O)C1C(=O)c1ccc(C(F)(F)F)cc1[N+](=O)[O-] [NTBC, 2-(2-nitro-4-trifluoromethylbenzoyl)-cyclohexane-1,3-dione]
all the biomarkers for 4-HPPD activity, average of their initial values: 3%
excretion of succinylacetoacetate, normalization: normalized within two weeks
plasma concentration of succinylacetone, normalization: stabilized in the normal range after two months of treatment
biomarkers for 4-HPPD activity, response upon initiation of NTBC treatment (po): promptly decreased
